SMILES strings stand for the structures.

Chains of the proteins cited; added tags and fusions are not shown. Residues count along the entry.
UniProt P22303, 32-614 limits assumed: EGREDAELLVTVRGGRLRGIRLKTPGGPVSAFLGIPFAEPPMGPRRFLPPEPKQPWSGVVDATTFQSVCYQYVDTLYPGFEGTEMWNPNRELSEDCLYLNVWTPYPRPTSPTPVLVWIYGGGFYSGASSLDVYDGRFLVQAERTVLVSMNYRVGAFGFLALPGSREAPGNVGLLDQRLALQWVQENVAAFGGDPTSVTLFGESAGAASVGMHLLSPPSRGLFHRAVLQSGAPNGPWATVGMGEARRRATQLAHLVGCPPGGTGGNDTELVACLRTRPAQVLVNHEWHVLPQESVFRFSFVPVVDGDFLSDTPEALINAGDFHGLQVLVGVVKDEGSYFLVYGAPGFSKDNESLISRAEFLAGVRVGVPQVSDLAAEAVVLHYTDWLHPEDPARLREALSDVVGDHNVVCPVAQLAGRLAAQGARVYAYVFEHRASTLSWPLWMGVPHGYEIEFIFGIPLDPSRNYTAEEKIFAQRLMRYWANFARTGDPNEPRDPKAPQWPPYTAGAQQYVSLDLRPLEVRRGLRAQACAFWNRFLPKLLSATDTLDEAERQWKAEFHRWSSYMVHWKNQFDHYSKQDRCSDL
UniProt P06276, 29-602 limits assumed: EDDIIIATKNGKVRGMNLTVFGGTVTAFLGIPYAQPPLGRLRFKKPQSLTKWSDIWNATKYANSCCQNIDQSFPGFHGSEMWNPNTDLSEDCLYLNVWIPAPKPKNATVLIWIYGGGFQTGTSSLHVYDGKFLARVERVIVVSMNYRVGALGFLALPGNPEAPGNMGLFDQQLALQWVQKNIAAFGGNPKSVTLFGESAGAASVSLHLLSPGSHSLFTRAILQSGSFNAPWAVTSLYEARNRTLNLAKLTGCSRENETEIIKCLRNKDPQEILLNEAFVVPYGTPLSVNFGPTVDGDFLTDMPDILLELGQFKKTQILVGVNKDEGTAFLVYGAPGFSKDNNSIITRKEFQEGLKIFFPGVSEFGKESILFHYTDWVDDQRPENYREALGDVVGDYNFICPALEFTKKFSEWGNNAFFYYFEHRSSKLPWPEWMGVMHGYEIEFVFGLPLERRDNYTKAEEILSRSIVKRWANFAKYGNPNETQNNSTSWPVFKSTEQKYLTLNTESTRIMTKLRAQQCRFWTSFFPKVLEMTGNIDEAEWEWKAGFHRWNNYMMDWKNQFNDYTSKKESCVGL
UniProt P23795, 31-614 isoform 2 limits assumed: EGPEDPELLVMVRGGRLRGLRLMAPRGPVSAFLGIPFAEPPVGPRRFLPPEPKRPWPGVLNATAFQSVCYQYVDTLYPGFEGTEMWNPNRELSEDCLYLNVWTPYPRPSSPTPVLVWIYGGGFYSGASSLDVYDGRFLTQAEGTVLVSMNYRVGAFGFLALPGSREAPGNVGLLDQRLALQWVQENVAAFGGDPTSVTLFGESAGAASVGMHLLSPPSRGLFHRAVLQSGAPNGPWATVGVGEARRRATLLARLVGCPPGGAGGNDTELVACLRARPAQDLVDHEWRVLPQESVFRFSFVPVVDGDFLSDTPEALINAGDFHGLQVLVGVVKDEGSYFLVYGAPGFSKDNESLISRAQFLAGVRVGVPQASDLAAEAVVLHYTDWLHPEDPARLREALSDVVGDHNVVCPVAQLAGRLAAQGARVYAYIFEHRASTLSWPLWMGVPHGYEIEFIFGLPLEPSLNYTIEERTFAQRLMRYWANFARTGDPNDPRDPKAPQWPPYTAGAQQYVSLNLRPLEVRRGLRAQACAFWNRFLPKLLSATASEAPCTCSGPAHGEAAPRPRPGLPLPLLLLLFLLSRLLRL

The target of one data set is AChE peripheral site (Homo sapiens, UniProt P22303). Put plainly: Propidium competition (fluorescence). It is filed as binding. The following applies: 20 μM propidium iodide, AChE incubated at least 6 hours with compound.
In data set [1] the test system is human neuroblastoma cell line SH—SY5Y. In words: Toxicity measurement (LDH) in SH-SY5Y cells. The data set is classed as cell-based. Conditions: 24 hours exposure. As to the method: The cytotoxicity effect of the molecules was tested in the human neuroblastoma cell line SH—SY5Y. These cells were cultured in 96-well plates in minimum essential medium, Han's F12 medium, supplemented with 10% fetal bovine serum, 1% glutamine and 1% penicillin/streptomycin, and grown in. a 5% CO2 humidified incubator at 37° C.
The cells were plated at 10^4 cells for each well, at least, 48 hours before the toxicity measure. Cells were exposed for 24 hours to the compounds at different concentrations (from 10^−5 to 10^−9), quantitative assessment of cell death was made by measurement of the intracellular enzyme lactate dehydrogenase (LDH) (citotoxicity detection kit, Roche). The cuantity of LDH was evaluated in a microplate reader Anthos 2010, at 492 and 620 nm. Controls were taken as 100% viability.

The target in another data set is BuChE from human serum (Homo sapiens, UniProt P06276). In words: Butyrylcholinesterase (BuChE) inhibition (from human serum). The data set is classed as biochemical. Conditions: read-out: IC50 BuChE, 30° C., 10 min preincubation.
The target of data set [2] is AChE from bovine erythrocytes (Bos taurus, UniProt P23795). In words: Acetylcholinesterase (AChE) inhibition (from bovine erythrocytes), Ellman method at 30° C., Digiscan 340T. The data set is classed as biochemical. Conditions: read-out: IC50 AchE, 5 min preincubation. A general note: Ellman's reagent forms a yellow product with free thiols.

As to `c1ccc2c(NCCCCCCCCCNc3c4ccccc4nc4ccccc34)c3c(nc2c1)CCCC3`, the Propidium competition at AChE peripheral site was found to be 100 µM. In data set [1], this molecule showed a Toxicity of 10 µM. For the same molecule, the 50% inhibitory concentration (IC50) was 10 nM at BuChE from human serum and 20 nM in data set [2].

The IC50 is the midpoint of a concentration-inhibition curve.

Values taken from US20060142323A1, “Dual binding site acetylcholinesterase inhibitors for the treatment of alzheimer's disease” (priority 2002, published 2006).
